Laboratory results from patent US20240246970A1, “SUBSTITUTED HETERO-BICYCLOCOMPOUNDS AS SUBTYPE SELECTIVE NICOTINIC ACETYLCHOLINE RECEPTOR INHIBITORS” (THE BOARD OF TRUSTEES OF THE UNIVERSITY OF ILLINOIS, priority 2021, published 2024).

Amino acid sequences for entries named in this document (tags omitted). Residues count along the entry.
UniProt P04757, 26-499 limits assumed: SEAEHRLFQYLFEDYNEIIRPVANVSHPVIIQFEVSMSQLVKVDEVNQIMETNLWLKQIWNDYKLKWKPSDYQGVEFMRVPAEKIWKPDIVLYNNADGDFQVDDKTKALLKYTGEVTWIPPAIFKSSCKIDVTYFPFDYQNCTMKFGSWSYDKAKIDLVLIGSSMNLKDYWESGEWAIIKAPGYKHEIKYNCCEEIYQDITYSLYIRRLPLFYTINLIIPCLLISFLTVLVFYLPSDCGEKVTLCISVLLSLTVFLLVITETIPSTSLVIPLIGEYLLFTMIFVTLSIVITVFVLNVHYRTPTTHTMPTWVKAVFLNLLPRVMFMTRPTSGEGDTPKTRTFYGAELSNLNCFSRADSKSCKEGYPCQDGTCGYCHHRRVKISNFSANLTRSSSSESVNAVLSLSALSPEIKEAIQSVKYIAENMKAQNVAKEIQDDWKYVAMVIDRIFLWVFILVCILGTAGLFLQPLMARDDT
UniProt P12392, 21-495 limits assumed: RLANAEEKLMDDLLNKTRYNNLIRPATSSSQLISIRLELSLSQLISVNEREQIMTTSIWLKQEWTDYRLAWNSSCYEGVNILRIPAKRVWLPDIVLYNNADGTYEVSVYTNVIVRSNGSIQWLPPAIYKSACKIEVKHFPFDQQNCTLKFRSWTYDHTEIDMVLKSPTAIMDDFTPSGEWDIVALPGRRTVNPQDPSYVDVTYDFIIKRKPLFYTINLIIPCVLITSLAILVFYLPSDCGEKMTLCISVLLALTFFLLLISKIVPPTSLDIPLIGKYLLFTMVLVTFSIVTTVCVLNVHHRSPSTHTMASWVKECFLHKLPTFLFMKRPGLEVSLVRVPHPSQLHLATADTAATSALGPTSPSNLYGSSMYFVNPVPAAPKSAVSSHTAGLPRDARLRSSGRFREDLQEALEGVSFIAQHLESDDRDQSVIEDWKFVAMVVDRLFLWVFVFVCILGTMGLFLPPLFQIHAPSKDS

Target: rat α3β4 nAChR (Rattus norvegicus, UniProt P04757+P12392)
Test: Calcium influx assay (dual agonist/antagonist, FLIPR calcium 6) in HEK293 cells expressing rat α3β4 nAChR
Format: cell-based
Settings: read-out: α3β4 nAChR IC50
[1] = Table 4, R1 and R2 methyl, R3 NH unless otherwise indicated

Row | Structure (SMILES) | IC50 (Table 3) | IC50 [1]
1 | CC1=CCC2CC1C1NC(C)(C)c3ccccc2cc1o3 (centres unmarked) | 23.3 µM | –
2 | CC1=CCC2CC1C(c1cc(O)cc(O)c1)NC2(C)C (single isomer, unassigned) | > 100 µM | 102 µM
3 | CC1=CCC2CC1C(c1ccc(C(F)(F)F)cc1)NC2(C)C (single isomer, unassigned) | 0.79 µM | –
4 | CC1=CCC2CC1C(c1ccc(F)c(C(F)(F)F)c1)NC2(C)C (single isomer, unassigned) | 0.28 µM | –
5 | CC1=CCC2CC1C(c1ccc(F)c(F)c1)NC2(C)C (single isomer, unassigned) | 0.32 µM | –
6 | CC1=CCC2CC1C(c1ccc(N(C)C)cc1)NC2(C)C (single isomer, unassigned) | 12 µM | 12 µM
7 | CC1=CCC2CC1C(c1ccc([N+](=O)[O-])cc1)NC2(C)C (single isomer, unassigned) | 3.1 µM | 3.14 µM
8 | CC1=CCC2CC1C(c1ccnc(F)c1)NC2(C)C (single isomer, unassigned) | > 100 µM | –

Read-outs that look alike come from different tables or passages of the source.
